## Yeast mating assay 1: variants of the scFv Ab-14

Source: Engelhart et al. 2022 (doi:10.1038/s41597-022-01779-4), MIT Lincoln Laboratory and A-Alpha Bio; data file from the FLAb repository.

The target is the same throughout: PDVDLGDISGINAS, from the HR2 region of SARS-CoV-2 spike.

Parent scFv Ab-14: VH joined to VL by a 15-residue (Gly4Ser)3 linker. Changes lie in the heavy chain CDRs alone.
VH: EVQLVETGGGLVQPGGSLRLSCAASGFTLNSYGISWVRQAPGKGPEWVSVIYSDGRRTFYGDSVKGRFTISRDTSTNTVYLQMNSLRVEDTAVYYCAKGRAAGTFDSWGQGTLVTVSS
VL: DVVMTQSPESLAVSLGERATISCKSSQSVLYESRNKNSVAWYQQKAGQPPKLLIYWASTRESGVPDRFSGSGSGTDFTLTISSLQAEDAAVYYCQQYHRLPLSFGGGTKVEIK

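The parent was found by panning a naive human phage display library on the peptide. In library AAYL49, one, two or three CDR residues were substituted; doubles and triples were drawn at random. AlphaSeq pools MATa yeast showing the antibodies with MATalpha yeast showing the peptide. After mating in shaken culture at 30 °C for 16 h, diploids were selected and their barcode pairs sequenced. The ratio of observed to expected reads was calibrated, replicate by replicate, on BCL2-family standards whose Kd was known from biolayer interferometry. Mating was done three times.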

Each variant is given by its three heavy chain CDRs, as the data file delimits them; those of the parent are GFTLNSYGIS, VIYSDGRRTFYGDSVK, GRAAGTFDS.
Values are log10 of the apparent Kd in nM; lower means stronger binding.
Averages over replicates are reported, and they cover detected replicates only.
A pair that was not seen in any replicate is written "nd"; this usually means weak binding, but a binder can also be missed.
Entries are sorted by rising average, undetected variants last.

mean, log10 nM	seen in	signal with controls	CDR-H1	CDR-H2	CDR-H3
0.49	3/3	1/9	GFTLNSYGIS	VIYSDGRRTFYGDSVK	GRVAGTFES
1.25	3/3	0/9	GFQLNSYGIS	VIYSDGRRTEYGDPVK	GRAAGTFDS
1.92	3/3	6/9	GFTVNSYGIS	VYYSDGRRTFYGDSVK	GQAAGTFDS
1.93	3/3	0/9	GFWLNSYGIS	VIYSDGERTFYGDSVK	GRAAGTFDS
1.94	3/3	2/9	GFTLNSYGIS	VIYSDGRRTFYGGSVA	GRYAGTFDS
2.34	3/3	1/9	GFTVNSYGIS	VIYSDGRREFYGDSVK	GRAAGTFDS
2.56	1/3	1/9	GFTLNSYMIS	VIYSDGRRTFFGDSVK	GRAAGTGDS
3.09	2/3	1/9	GFTLNSYGIS	VIYSDGRGTFYGDSVK	GRAASTFQS
3.12	1/3	1/9	GFTLNSYGIE	VIYSDGRRTFYGDSVK	GRAWGTFDK
3.16	1/3	2/9	GFTLNSYGIS	VIYSDGRRYFYGDSVK	GRADGTFDD
3.27	1/3	1/9	GFQLNSNGIS	VIYSDGFRTFYGDSVK	GRAAGTFDS
3.36	2/3	0/9	GFTYNSYGIS	TIYSDGLRTFYGDSVK	GRAAGTFDS
3.63	1/3	1/9	GFTLNSYQIS	VIYSDGRRTFYGDSVK	GSAAGYFDS
3.67	2/3	3/9	GFTLNSYGIS	VIYSDKRRDFYKDSVK	GRAAGTFDS
3.73	2/3	1/9	GFTLNSKGIS	VIYSDGPRTSYGDSVK	GRAAGTFDS
3.84	2/3	1/9	GFTLISYGIS	DIYSDGRRTFYGDSVK	GRAQGTFDS
3.87	2/3	3/9	GFTLPSYGIS	VIYSDGRRTFYGDCVK	GRAAGTSDS
3.90	1/3	0/9	GFTLNSLKIS	VIYSDGRRTFYGDSVK	GRSAGTFDS
3.97	2/3	2/9	GETLNSYGIS	VFYPDGRRTFYGDSVK	GRAAGTFDS
4.06	1/3	1/9	GFTLNSYGIS	VIYSDDRRTQYGDSVK	GGAAGTFDS
4.18	1/3	5/9	GFTLNSYGIS	VIYSDGRRGFYGDSVK	GRAASTFDS
4.27	1/3	3/9	GFTLPSYGIF	HIYSDGRRTFYGDSVK	GRAAGTFDS
4.37	2/3	3/9	GFTLNSYGIS	VGYSDGRRTFYGDSVF	GRAKGTFDS
4.46	2/3	1/9	GFTTNSYGIS	VIYSDGRRTFYGDRVK	GRAAGTFDS
4.68	1/3	0/9	GFTLNSFGTS	VIYSDGRRTFYGDSVK	GRAVGTFDS
4.75	3/3	6/9	GFQLNSYGIS	PIYSDGRRTFYGDSVK	GRAAGTFDS
4.75	1/3	2/9	GFTLNSYGIS	VTYSDGRRTFYGDTVK	SRAAGTFDS
4.78	1/3	1/9	GFTLCSYGIS	VIYDDGRRTFYGDSVP	GRAAGTFDS
4.86	3/3	4/9	GFTLNNYGIS	VIYSDSRRTFYGDSVK	GRAAGTFIS
4.90	1/3	0/9	GNTLNSYGIS	VIYSDHRRTFYGDLVK	GRAAGTFDS
4.92	3/3	6/9	GFTLNSYGIS	VIYSDDRMTFYGDSVK	GRAAGTFDS
5.30	1/3	3/9	GFTLNSCGIS	VIYSDSRRTFYGDSVK	GRKAGTFDS
5.37	2/3	7/9	PFTLNSAGIS	VIYSDGRRTFYGDSVK	GRAAGYFDS
5.56	2/3	6/9	GFTLNSYGGS	VIYQDGRRTFYGDSVK	GRPAGTFDS
5.86	1/3	3/9	GFTLNRYWIS	VIYSDGRCTFYGDSVK	GRAAGTFDS
nd	0/3	0/9	GFLLNSYGIS	VTYSDGRRTFYGDSVK	GRAQGTFDS
nd	0/3	1/9	GFTLLSYKIS	VIYSDGRRTFYGDSVK	GRAAPTFDS
nd	0/3	0/9	GFTLNSYGIS	VIYFDGRRTFEGDSVK	GRRAGTFDS
nd	0/3	0/9	TFTLNSYGIS	VIYSDGRRTFYGDSIK	GRRAGTFDS
nd	0/3	1/9	GFTSNSYGIS	VIYSDGRRTFNGDSGK	GRAAGTFDS
nd	0/3	0/9	GFTLNSYGIS	VIYSDIRRAFYGDSVK	GRAAGTFGS
nd	0/3	0/9	GFTLNSYGIS	VIYSDGCRTFYLDSVK	GRAAGTFDS
nd	0/3	2/9	GFTLNSPGIS	VIWSDGRRTFYGDSVK	GRFAGTFDS
nd	0/3	0/9	GQTLNSYGIS	VIYSDGFRTFYGGSVK	GRAAGTFDS
nd	0/3	0/9	GFTINSYGIS	VIYSDGRRTFDGDSVK	GRAAGTFYS
nd	0/3	0/9	GFTLNSYGII	YIYSDGRRTFYGDSVK	GRAAGTFDS
nd	0/3	1/9	GFTLNSYEIS	VIYSDGRRTFYGDSVQ	GRSAGTFDS
nd	0/3	1/9	GFTLNSYGIS	VIYSDWRRTFCGDSFK	GRAAGTFDS
nd	0/3	1/9	HFTLNSYGIS	VIYSDGRRTFYGDSVP	GRAAGTGDS
nd	0/3	0/9	GFTSNSYGIS	VIYSDGRNTFYGDSVK	GRAAGTKDS
nd	0/3	2/9	GFTLNSYGFL	VIYSDGRCTFYGDSVK	GRAAGTFDS
nd	0/3	0/9	GFWLNSYGIS	VIYSDGRRTPYGDSVK	GRAAGEFDS
nd	0/3	0/9	GFTLNSYGIS	VIYSDGRRTFYIMSVK	GWAAGTFDS
nd	0/3	1/9	GFTLNSYGIA	VIISDGARTFYGDSVK	GRAAGTFDS
nd	0/3	1/9	GFTRNSYGIS	VIYSDGRRTFYGDSVK	GRAAGSFDS
nd	0/3	0/9	CFTLNSYGIS	VIYSDGRRYFYGDSGK	GRAAGTFDS
nd	0/3	0/9	GFTLNNYPIS	VIYSDGRRTFYGYSVK	GRAAGTFDS
nd	0/3	2/9	GFTLNSYGIS	VQYSDGRRTWYGDSVK	GRAAGCFDS
nd	0/3	0/9	GFTLNSYGIS	VIKSDGRRTFYGDSVK	GRAAGMVDS
nd	0/3	0/9	GFTLNSYGIS	VEYEDGRRTFYGDSVK	GRAAGTADS
nd	0/3	0/9	GFTLNSYGIS	VIYSDGRRTFYGDSVA	GSAAGTFDS
nd	0/3	0/9	GFTLNSYGIS	VIFSDERRTFYGDSKK	GRAAGTFDS
nd	0/3	0/9	GFTVNSYGIS	VIYSDGRTTFYGDSVK	GRACGTFDS
nd	0/3	0/9	GFTLNSYGIS	VIYSDGRRTFYADSVP	RRAAGTFDS

In this assay the parent's reference entry averaged 0.65; its copy inside this library read 4.11 (one replicate of three).
Background: pairings of library AAYL49 with three empty control strains gave a value in 15% of cases (median 4.06, 5th percentile 2.83). Values in that range, when seen in few replicates, are hard to tell from nonspecific mating. The control count says in how many pairings with the empty strains this scFv gave a signal.